{
  "source": "ChEMBL document CHEMBL5252531",
  "about": "“2015 Philip S. Portoghese Medicinal Chemistry Lectureship. Curing Hepatitis C Virus Infection with Direct-Acting Antiviral Agents: The Arc of a Medicinal Chemistry Triumph” (J Med Chem, 2016)",
  "key": {"[1]": {"experiment": "in vivo", "conditions": "dog, po"}, "[2]": {"experiment": "in vivo", "conditions": "Sprague-Dawley, rat, liver/plasma, po, 20 mg/kg"}, "[3]": {"experiment": "in vivo", "conditions": "cynomolgus monkey, liver/plasma, po, 20 mg/kg"}},
  "data": [
    {"smiles": "C=C[C@@H]1C[C@]1(NC(=O)[C@@H]1C[C@@H](Oc2ncc(OC)c3ccc(Cl)cc23)CN1C(=O)[C@@H](NC(=O)OC(C)(C)C)C(C)(C)C)C(=O)NS(=O)(=O)C1CC1", "values": [
      {"measurement": "bioavailability", "setting": "[1]", "value": 61, "unit": "%"},
      {"measurement": "Kp at 24 h", "setting": "[2]", "value": 300},
      {"measurement": "Kp at 24 h", "setting": "[3]", "value": 410}
    ]}
  ]
}
